{"sequences": {"note": "Sequences of proteins named here, by UniProt entry; tags and fusion partners are left off. Residues count along the entry.", "UniProt P21333, 2-2647 limits assumed": "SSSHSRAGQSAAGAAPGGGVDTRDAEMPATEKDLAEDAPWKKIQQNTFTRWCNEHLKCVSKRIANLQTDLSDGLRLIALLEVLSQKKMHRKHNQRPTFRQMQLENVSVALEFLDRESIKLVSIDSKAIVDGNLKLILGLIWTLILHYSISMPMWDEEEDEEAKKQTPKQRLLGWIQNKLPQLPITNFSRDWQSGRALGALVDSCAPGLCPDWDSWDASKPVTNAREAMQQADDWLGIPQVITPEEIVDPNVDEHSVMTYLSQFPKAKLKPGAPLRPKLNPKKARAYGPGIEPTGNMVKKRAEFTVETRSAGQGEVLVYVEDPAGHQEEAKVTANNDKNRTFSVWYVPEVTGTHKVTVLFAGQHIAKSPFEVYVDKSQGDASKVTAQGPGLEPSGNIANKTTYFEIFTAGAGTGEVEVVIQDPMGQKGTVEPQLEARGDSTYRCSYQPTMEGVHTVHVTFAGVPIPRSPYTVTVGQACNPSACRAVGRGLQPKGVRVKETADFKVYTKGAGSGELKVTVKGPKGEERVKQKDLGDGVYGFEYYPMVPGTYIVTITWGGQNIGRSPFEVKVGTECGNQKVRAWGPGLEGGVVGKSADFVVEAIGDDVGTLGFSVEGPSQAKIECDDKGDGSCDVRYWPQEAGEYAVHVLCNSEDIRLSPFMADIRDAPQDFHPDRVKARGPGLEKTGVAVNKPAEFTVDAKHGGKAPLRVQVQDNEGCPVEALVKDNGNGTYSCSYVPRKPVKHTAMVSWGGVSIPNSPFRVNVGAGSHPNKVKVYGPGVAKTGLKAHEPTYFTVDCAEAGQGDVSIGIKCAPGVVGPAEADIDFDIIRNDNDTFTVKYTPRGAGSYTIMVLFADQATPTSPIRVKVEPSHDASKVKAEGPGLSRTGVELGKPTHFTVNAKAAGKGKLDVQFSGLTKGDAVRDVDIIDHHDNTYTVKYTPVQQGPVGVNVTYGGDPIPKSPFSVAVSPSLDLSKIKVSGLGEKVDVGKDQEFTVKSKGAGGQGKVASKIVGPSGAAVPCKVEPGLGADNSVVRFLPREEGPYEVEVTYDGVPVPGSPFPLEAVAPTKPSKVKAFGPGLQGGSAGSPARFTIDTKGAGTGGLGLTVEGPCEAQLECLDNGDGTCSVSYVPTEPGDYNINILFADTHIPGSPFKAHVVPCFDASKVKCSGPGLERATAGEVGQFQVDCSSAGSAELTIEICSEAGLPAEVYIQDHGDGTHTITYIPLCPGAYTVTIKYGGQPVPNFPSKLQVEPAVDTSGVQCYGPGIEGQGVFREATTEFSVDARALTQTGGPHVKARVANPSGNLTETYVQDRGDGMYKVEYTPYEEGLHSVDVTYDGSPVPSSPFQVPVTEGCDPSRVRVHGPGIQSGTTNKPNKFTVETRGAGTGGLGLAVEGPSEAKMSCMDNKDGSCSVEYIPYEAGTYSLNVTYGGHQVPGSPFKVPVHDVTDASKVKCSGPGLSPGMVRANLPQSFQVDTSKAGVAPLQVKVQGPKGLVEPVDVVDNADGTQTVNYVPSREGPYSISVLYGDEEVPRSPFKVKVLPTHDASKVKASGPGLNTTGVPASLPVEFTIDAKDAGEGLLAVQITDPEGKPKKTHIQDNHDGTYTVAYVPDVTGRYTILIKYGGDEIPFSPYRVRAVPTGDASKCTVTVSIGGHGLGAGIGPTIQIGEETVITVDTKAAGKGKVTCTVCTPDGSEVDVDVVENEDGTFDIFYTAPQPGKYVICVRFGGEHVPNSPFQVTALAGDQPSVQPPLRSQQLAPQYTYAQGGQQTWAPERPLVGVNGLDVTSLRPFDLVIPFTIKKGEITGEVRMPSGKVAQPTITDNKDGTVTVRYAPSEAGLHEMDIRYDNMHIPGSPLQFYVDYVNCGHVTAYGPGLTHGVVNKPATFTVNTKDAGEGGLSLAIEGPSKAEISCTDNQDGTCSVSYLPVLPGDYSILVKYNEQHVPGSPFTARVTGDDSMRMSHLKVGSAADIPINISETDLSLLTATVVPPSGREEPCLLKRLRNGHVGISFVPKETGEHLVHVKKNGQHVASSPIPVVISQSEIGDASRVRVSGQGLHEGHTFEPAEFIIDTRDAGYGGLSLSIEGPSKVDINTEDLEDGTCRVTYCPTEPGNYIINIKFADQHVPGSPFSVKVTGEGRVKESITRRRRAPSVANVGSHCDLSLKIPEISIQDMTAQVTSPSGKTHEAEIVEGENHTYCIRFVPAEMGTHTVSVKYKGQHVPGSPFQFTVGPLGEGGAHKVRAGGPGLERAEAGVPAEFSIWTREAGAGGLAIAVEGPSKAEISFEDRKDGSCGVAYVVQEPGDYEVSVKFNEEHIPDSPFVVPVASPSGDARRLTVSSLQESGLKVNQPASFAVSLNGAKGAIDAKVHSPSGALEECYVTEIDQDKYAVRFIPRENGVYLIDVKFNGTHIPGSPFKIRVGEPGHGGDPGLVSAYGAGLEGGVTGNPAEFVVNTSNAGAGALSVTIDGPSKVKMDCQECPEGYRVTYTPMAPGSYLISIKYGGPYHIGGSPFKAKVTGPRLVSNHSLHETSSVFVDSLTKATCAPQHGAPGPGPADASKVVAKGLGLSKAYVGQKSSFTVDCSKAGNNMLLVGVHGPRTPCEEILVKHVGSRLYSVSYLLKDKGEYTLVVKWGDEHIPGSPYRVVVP"}, "source": "patent US10222368B2", "about": "(priority 2012, dated 2019)", "target": "T1, human FLNA-α7nAChR complex (Homo sapiens, UniProt P21333)", "T1 construct": "To determine the levels of FLNA-α7nAChR, FLNA-TLR4 and α7nAChR-Aβ42 complexes in the lymphocytes; endogenous in cells; host or cells: lymphocytes from venous blood of AD patients and control subjects (ex vivo)", "test": "Supplemental ELISA for FLNA-α7nAChR complex (Example 8: specificity, accuracy, precision, linearity, detection limit)", "procedure": "The following study was carried out to assist in development of a protocol for an ELISA assay method for quantitative detection of human FLNA-α7nAChR/TLR4 complex. The following ELISA method activities were carried out to quantify FLNA-α7nAChR complex: specificity; accuracy; precision/repeatability; linearity and range; and, detection limit.\nTo assure ELISA assay uniquely identifies human FLNA-α7nAChR complex, the cross reactivity to human FLNA-α7nAChR complex, unrelated human proteins human leptin and human chorionic gonadotropin (hLeptin and hCG) were added to the lymphocyte lysate preparations and the ELISA assay performed.\nTo assure the ELISA assay returns a value that is representative of the “true” value, a range of concentrations of recombinant human leptin was spiked into lysate sample with FLNA-α7nAChR complex. Recovery percent concentrations were measured and accuracy calculated.\nTo assure that three measurements of a single lysate sample (e.g., sample AD#63) made in the same assay provide the same result, three samples were measured using the ELISA assay, three times on the same day using the same methods (repeatability). Within-day RSD was calculated.\nTo assure that the response is linear over the range of expected sample values, OD 450 of different concentrations of human FLNA-α7nAChR complex were detected using the ELISA assay. […]", "data": [{"substance": "hCG: unrelated human proteins human leptin and human chorionic gonadotropin (hLeptin and hCG); human recombinant CG", "values": [{"measurement": "Normalized OD, Average", "setting": "5 μg protein per well instead of lymphocyte lysate", "result": 0.01}, {"measurement": "% Cross reactivity", "setting": "5 μg protein per well, relative to 5 μg AD#63 lysate", "result": 3.1, "unit": "%"}]}]}
